The numbers were not newly measured in publication PMC6311893, “Computational prediction of plasma protein binding of cyclic peptides from small molecule experimental data using sparse modeling techniques” (BMC Bioinformatics, 2018), which cites them from elsewhere.

The data set concerns plasma protein. The conditions noted are these: fraction bound to plasma protein, small molecule dataset, sheet 1-SM, ref Ingle et al., cited from earlier work.

Like-named read-outs stand apart in the source and are kept apart here. This is a selection: effects in other tests are not listed, and their absence says nothing.

`CC(C)N1CCC(N(C(=O)Cc2ccccc2)c2ccc(Cl)cc2)CC1`: the “PPB (fb)” value (Set Dtr) is listed as 0.85.
`O=[N+]([O-])OCC(CO[N+](=O)[O-])(CO[N+](=O)[O-])CO[N+](=O)[O-]`: the “PPB (fb)” value is listed as 0.85.
